{"source": "ChEMBL document CHEMBL1955728", "about": "“3,5-Disubstituted indole derivatives as selective human neuronal nitric oxide synthase (nNOS) inhibitors” (Bioorg Med Chem Lett, 2012)", "species_on_record": "Homo sapiens", "assay": "Selectivity ratio of IC50 for human eNOS to IC50 for human nNOS"}
{"smiles": "CN1CCC(c2c[nH]c3ccc(/N=C(\\N)c4cccs4)cc23)CC1", "values": [{"measurement": "Ratio IC50", "result": 24}]}
